Assay results taken from PMC7611526.

Legend:
[1] = system: OCT4-del-79 (Homo sapiens); assay: EMSA
OCT4-WT (Homo sapiens) = assay: EMSA

Row | Substance | Kd [1] | Kd (OCT4-WT (Homo sapiens))
1 | LIN28B-DNA | 2.34 nM | 
2 | LIN28B-nucleosome |  | 2.34 nM
